In patent US8034797B2, “Triazene compounds for the treatment of cancer” (Trin Therapeutics GmbH, priority 2007, dated 2011):

Tested on: MAXF 401
Assay: MAXF 401 breast tumour xenograft in nude mice
Type: in vivo
Settings: for tumour remission: within 4 weeks of treatment
Method: All the tests were carried out using female nude mice under standard conditions for the keeping of animals with controlled illumination and temperature. The animals were given water and food as desired.
The increase in the volume of the individual tumours was measured using microcallipers, and the size of the tumour was calculated according to the formula a*b^2/2 (where a is the largest diameter of the tumour and b is the vertical axis). When the tumour volume had increased to 80-120 mm^3, the animals were allocated at random into test groups of in each case 6 animals.
The test compounds (in the form of sodium salts) were dissolved in a saline solution, and 5% Klucel (hydroxypropylcellulose) was added in order to dissolve all the test compounds in the same carrier. […] A volume of 10 ml/kg body weight was injected. Animals that received only the carrier served as control. The test compounds were treated according to the scheme of twice weekly administration over a period of […]. The tumour volume and the body weight were checked twice weekly, and the relative tumour volumes were calculated as the ratio of tumour size to body weight.
On the basis of the relative tumour volumes of the animals treated with the test compounds compared with the tumour volumes of the controls treated only with the carrier, the T/C values were calculated and were used as the index of anti-tumour activity.
Subcutaneous implantation of the tumour and the determination of the tumour volume were carried out as described hereinbefore. The above-mentioned salts of the test substance were administered by ip injection twice weekly in the mentioned doses in the form of an aqueous solution, over a period of 4 weeks. […]
Subcutaneous implantation of the tumour and the determination of tumour volumes were carried out as described hereinbefore. The test substance was administered by ip injection twice weekly in the mentioned doses in the form of the sodium salt as an aqueous solution, over a period of 4 weeks.

[1] = equimolar to 350 mg/kg of comparison compound, twice weekly
[2] = equimolar to 350 mg/kg of comparison compound

SMILES: CN(C)/N=N/c1ccc(C(=O)c2ccc(OCCC(=O)NCC(=O)O)cc2)cc1 [Example 2, {3-[4(4-[(1E)-3,3-dimethyl-1-triazenyl]-benzoyl)-phenoxyl]propionylamino} acetic acid]
- tolerability [1]: well tolerated
- tumour remission [2]: marked tumour remission

SMILES: CN(C)/N=N/c1ccc(C(=O)c2ccc(OCCC(=O)NCC(=O)[O-])cc2)cc1.[Na+] [Example 2a]
- tolerability (dose range used, ip twice weekly over 4 weeks): well tolerated

SMILES: CN(C)/N=N/c1ccc(C(=O)c2ccc(OCC(=O)NCC(=O)O)cc2)cc1 [Example 4, {2-[4-(4-[(1E)-3,3-dimethyl-1-triazenyl]-benzoyl)-phenoxy]-acetylamino}acetic acid]
- tolerability [1]: well tolerated
- tumour remission [2]: marked tumour remission
